miR-21 reporter: raises the signal of a miR-21 reporter | Potency, µM (doses to about 38.3 µM), for inactives: top-dose reporter change, positive = more light | HeLa miR-21 FLuc reporter, luciferase, 48 h | AID 2288 | 340,000 tested, under 10 active; active = well fitted rising curve with a large enough effect; inconclusive = small, poorly fitted or top-dose-only effect; inactive = no such curve, though single readings can be large or run the other way;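 also: % of control where 0% means no effect; miR-21 action dims this reporter so a rising signal means less miR-21 action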
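Using DMEM plus 10% FBS, HeLa miR-21-FLuc cells are incubated with test compounds (final up to about 40uM) for 48 hours; firefly luciferase signal is then imaged following reagent-mediated lysis.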
A549 viability: A549 cytotoxicity, counter-screen for Nrf2 inhibitors; A549 ARE-Fluc cells, CellTiter-Fluor viability, 18-24 h; Potency, µM (doses to about 46 µM), for the others: at the highest dose activity change, negative = cytotoxicity, usual class: inhibitors; 390,000 tested, 0.16% active; AID 504648; further: potency means the concentration at half of the fitted maximal effect; on the % scale 0 is the no-effect control and ±100 the full control effect
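A549 ARE-Fluc cells in 5% FBS OPTI-MEM, 5000 cells/well, rested 2 h then exposed to compounds in concentration-response for 18-24 h at 37 °C. Viability by CellTiter-Fluor fluorescence (Ex 405/Em 525) after 30 min; luciferase luminescence (BugLite, 15 min, RT) read afterwards.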
Nrf2 activator: Nrf2 pathway activation. AREc32 ARE-luciferase reporter (MCF7-derived line), luminescence, 24 h. Potency, µM (titrated, usually from 46.1 µM), for inactives: top-dose activation, hits mostly activators. 410,000 tested, 0.31% active. AID 624171; further: potency means the concentration at half of the fitted maximal effect; % of control where 0% means no effect; nearly all actives have a fitted effect of over 65% in size
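Luciferase luminescence (Steady-Glo, 30 min at room temperature) served as the read-out of ARE activation in AREc32 cells treated with compounds for 24 hr at 37 deg C.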
Mito fusion act: inhibitors of mitochondrial division or activators of mitochondrial fusion; Potency, µM (doses to about 46.1 µM), for the others: top-dose growth rescue (activation), hits mostly activators; S. cerevisiae fusion-defective mutant growth rescue, CellTiterGlo 48 h; 320,000 tested, 0.23% active; further: potency means the concentration at half of the fitted maximal effect; % of control where 0% means no effect; nearly all actives have a fitted effect of over 45% in size
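Read-out: ATP-based luminescence (CellTiterGlo, 10 min ambient) reporting growth of fusion-defective ts yeast after 48 hours at 37C on glycerol/ethanol YPEG medium in the presence of compound.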
Nrf2 inh: inhibitors of Nrf2 signaling; A549 ARE-Fluc reporter, luciferase luminescence, 18-24 h; Potency, µM (series often up to 46 µM), inactives show at the highest dose activity change, negative = inhibition, usual class: inhibitors; 360,000 tested, 2.1% active; AID 504444; further: potency means the concentration at half of the fitted maximal effect; on the % scale 0 is the no-effect control and ±100 the full control effect; nearly all actives have a fitted effect of over 60% in size
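Cells were seeded and rested 2 h, then exposed to compounds for 18-24 h. CellTiter-Fluor was read first as a viability measure. BugLite was added 15 min before the final luminescent read of ARE-luciferase activity in A549 cells.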
* marks the source's active call; other numbers are inactive results; ? = inconclusive; . = not tested or not shown; [ ] = remark or other dose. Compounds with a hit are over-represented: about 2.3% of the library has one in this group of screens. The call rests on the fitted dose curve; in most records, active means well fitted curve in the direction sought with a large enough effect; inconclusive means small, poorly fitted or top-dose-only effect, or another doubt; inactive means no such curve, though single readings can be large; an effect the other way counts as inactive or inconclusive.

SMILES	miR-21 reporter	A549 viability	Nrf2 activator	Mito fusion act	Nrf2 inh
Cn1c(=O)c2c(nc(NCCc3ccccc3)n2Cc2ccc(F)cc2)n(C)c1=O	18.5%	0.5%	-0.2%	22.8%	?
O=C(c1ccc(Oc2ccc([N+](=O)[O-])cc2)cc1)N1CCCCCC1	10.6%	-10.3%	0.3%[9.22 µM]	-0.4%	5.8µM*
O=C(Cn1ncn2c(cc3ccccc32)c1=O)NCc1ccc(F)cc1	-1.8%	-1.2%	0.3%	.	8.6%
CSc1ccc(CCNC(=O)CCc2c(C)nc3cc(-c4ccccc4)nn3c2C)cc1	8.2%	-2.3%	-3.0%	.	?
Cn1c(=O)n(C)c2cc(NC(=O)CCl)ccc21	?	?	?	-4.6%	18.4µM*
CNc1nc(C#N)nc(Nc2ccccc2)n1	.	1.3%	.	.	4.5%
CC(C)(C)S(=O)(=O)/C(C#N)=N/Nc1ccc(Cl)cc1	?	?	6.7%	1.7%	10.3µM*
CC(C)(C)c1ccc(N/N=C(\C#N)S(=O)(=O)C(C)(C)C)cc1	23.0%	?	-0.9%[9.22 µM]	-1.2%	?
Cc1ccc(NC(=O)c2ccc(Cl)c(S(=O)(=O)N3CCCCCC3)c2)nc1	.	?	0.2%	20.0%	23.1µM*
O=C(Nc1cccnc1)c1ccc(Cl)c(S(=O)(=O)N2CCCCCC2)c1	15.3%	-5.0%[1.84 µM]	2.2%	18.3%	14.6µM*
Cc1ccc(C(=O)Nc2cccnc2)cc1S(=O)(=O)N1CCCCCC1	-7.6%	-2.6%	-0.5%	7.0%	-2.8%
CCN(CC)c1cc2c(cc1F)c(=O)c(S(=O)(=O)c1cc(C)ccc1C)cn2Cc1ccccc1	14.1%	-15.9%	-1.3%	.	?
COc1ccc(Br)cc1C(=O)Nc1ccc(N2CCN(S(C)(=O)=O)CC2)cc1	1.5%	-18.4%	2.5%	2.5%	18.4µM*
O=C(Nc1ccc(F)cc1)c1ccc(Br)c(S(=O)(=O)N2CCOCC2)c1	22.0%	-16.5%	3.3%	10.2%	14.6µM*
CN1CCN(S(=O)(=O)c2cccc(C(=O)Nc3ccccc3N3CCCC3)c2)CC1	-3.4%	-8.2%	-0.7%	0.5%	-13.0%
CC1CN(S(=O)(=O)c2cccc(C(=O)Nc3ccccc3N3CCCC3)c2)CC(C)O1 (stereo not drawn)	.	-12.4%	3.5%	17.6%	23.1µM*
COc1ccc(Br)cc1C(=O)Nc1ccc(N2CCCC2)cc1	-8.5%	0.7%	13.9%	-1.5%	?
O=C(Nc1ccc(Br)cc1)c1cccc(OC(=S)N2CCOCC2)c1	20.2%	-15.2%	3.2%	4.0%	16.4µM*
COC(=O)c1c(-c2ccc(Cl)cc2)noc1N1CCN(c2cc(C)ccc2C)CC1	-3.0%	9.1%	-0.2%	.	.
O=S(=O)(Nc1cc(O)cc2cccnc12)c1ccc(Cl)s1	.	-2.4%	.	.	16.5%
COc1ccc(C(=O)Nc2ccc(N3CCCCCC3)cc2)cc1S(=O)(=O)N1CCOCC1	.	-17.3%	-0.6%	-0.1%	13µM*
O=C(Nc1cccc(S(=O)(=O)N2CCOCC2)c1)c1cccc(S(=O)(=O)N2CCCCC2)c1	.	-3.6%	-0.7%	4.6%	?
COc1ccc(C(=O)Nc2ccc(NC(=O)c3ccccc3)cc2)cc1S(=O)(=O)N1CCOCC1	4.5%	-14.9%	0.4%	1.8%	?
CN(c1ccccc1)S(=O)(=O)c1cccc(C(=O)Nc2ccc(N3CCOCC3)cc2)c1	.	-3.5%	3.8%	3.3%	14.6µM*
O=C(Nc1ccc(N2CCCCCC2)cc1)c1cccc(S(=O)(=O)N2CCOCC2)c1	.	-3.1%	0.2%	3.9%	16.4µM*
CC(C)CCn1c(SCc2c(F)cccc2Cl)nc2ccsc2c1=O	-3.3%	-4.1%	-1.3%	.	.
Cc1oc(-c2cccc(Br)c2)nc1CSc1nc2ncccc2[nH]1	-4.5%	0.7%	-0.8%	.	-12.3%
Cc1ccc(C(=O)O[C@H](C(=O)O)[C@@H](OC(=O)c2ccc(C)cc2)C(=O)O)cc1 (tested in a mixture with another compound)	.	.	.	12.0%	.
Cc1ccccc1OC(C)C(=O)NCCNC(=O)C(C)Oc1ccccc1C (stereo not drawn)	.	0.7%	.	.	1.5%
Cc1cc2c(s1)c1cnn(Cc3cc(F)cc(F)c3F)c(=O)c1n2C	.	-2.5%	.	.	0.3%
CCC(=O)N1CCc2cc(S(=O)(=O)CCC(=O)Nc3ccc(Cl)c(C(F)(F)F)c3)ccc21	?	-1.6%	23.4%	.	20.6µM*
CN1C(=O)Cc2cc(S(=O)(=O)CCC(=O)Nc3ccc(Cl)c(C(F)(F)F)c3)ccc21	-1.9%	12.3%	3.0%	.	2.5%
CS(=O)(=O)N1CCc2cc(C(=O)Nc3ccc(Cl)c(C(F)(F)F)c3)ccc21	?	-27.4%	-0.5%	.	20.6µM*
COc1ccc(-c2nc3cc(NC(=O)Cc4ccc(OC)c(OC)c4)ccc3o2)cc1	1.3%	?	0.6%	-2.2%	14.6µM*
COc1ccc(-c2nc3cc(NC(=O)CSc4ccc(C)cc4)ccc3o2)cc1	-43.5%	-20.3%	-1.2%	.	2.1%
COc1ccc(CC(=O)Nc2ccc(-c3cn4cccc(C)c4n3)cc2)cc1OC	-1.3%	2.5%	7.4%	-0.6%	7.31µM*
COc1ccc(-c2nc3cc(NC(=O)Cc4ccc(Cl)cc4)ccc3o2)cc1OC	10.6%	?	-0.1%	.	23.1µM*
Cc1ccc(N2C(=O)CSC23C(=O)N(CC(=O)NCCc2ccccc2)c2ccccc23)cc1C (stereo not drawn)	3.3%	-19.6%	1.1%	.	?
Cc1noc(-c2ccc(-c3noc(-c4ccc(Cl)cc4)n3)cc2)n1	-3.4%	4.7%	-0.8%	.	.
CCN(CC)S(=O)(=O)c1cc(NC(=O)CSc2nc3c(cc2C#N)C(=O)CC(C)(C)C3)ccc1C	-0.6%	?	8.1%	-4.8%	18.4µM*

An excerpt from above in order of number of heavy atoms, high to low.
SMILES	miR-21 reporter	A549 viability	Nrf2 activator	Mito fusion act	Nrf2 inh
CCN(CC)S(=O)(=O)c1cc(NC(=O)CSc2nc3c(cc2C#N)C(=O)CC(C)(C)C3)ccc1C	-0.6%	?	8.1%	-4.8%	18.4µM*
COc1ccc(-c2nc3cc(NC(=O)Cc4ccc(Cl)cc4)ccc3o2)cc1OC	10.6%	?	-0.1%	.	23.1µM*
COc1ccc(-c2nc3cc(NC(=O)CSc4ccc(C)cc4)ccc3o2)cc1	-43.5%	-20.3%	-1.2%	.	2.1%

The listing picks up; the 5 compounds before the break are reprinted first.
SMILES	miR-21 reporter	A549 viability	Nrf2 activator	Mito fusion act	Nrf2 inh
COc1ccc(CC(=O)Nc2ccc(-c3cn4cccc(C)c4n3)cc2)cc1OC	-1.3%	2.5%	7.4%	-0.6%	7.31µM*
COc1ccc(-c2nc3cc(NC(=O)Cc4ccc(Cl)cc4)ccc3o2)cc1OC	10.6%	?	-0.1%	.	23.1µM*
Cc1ccc(N2C(=O)CSC23C(=O)N(CC(=O)NCCc2ccccc2)c2ccccc23)cc1C (stereo not drawn)	3.3%	-19.6%	1.1%	.	?
Cc1noc(-c2ccc(-c3noc(-c4ccc(Cl)cc4)n3)cc2)n1	-3.4%	4.7%	-0.8%	.	.
CCN(CC)S(=O)(=O)c1cc(NC(=O)CSc2nc3c(cc2C#N)C(=O)CC(C)(C)C3)ccc1C	-0.6%	?	8.1%	-4.8%	18.4µM*
COc1ccc(-n2cc(-c3ccc4c(c3)OCO4)n(CC(=O)Nc3cc(Cl)ccc3C)c2=O)cc1	-13.6%	-19.2%	4.2%	.	?
COc1ccc(-n2cc(-c3ccc4c(c3)OCO4)n(CC(=O)Nc3cccc(C)c3C)c2=O)c(OC)c1	?	?	-1.5%	.	13µM*
Cc1ccc2occ(C(=O)c3ccco3)c(=O)c2c1	-31.8%	-3.2%	12.6µM*	-3.7%	20.5%
O=C(c1cc(C(=O)c2ccco2)cc(C(=O)c2ccco2)c1)c1ccco1	-8.5%	-0.6%	5.4%	-0.3%	-3.3%
COC(=O)c1ccccc1NC(=O)c1ccc2c(c1)CCN2S(=O)(=O)c1ccc(C)cc1	1.9%	9.8%	0.8%	.	5.8%
Nc1ncnc2oc(-c3ccco3)c(-c3ccco3)c12	-22.5%	-19.9%	17.0%	10.9%	14.6µM*
Nc1ncnc2oc(-c3ccoc3)c(-c3ccco3)c12	.	-1.3%	.	.	?
COc1ccc(-c2nc3ccccc3c(=O)n2Cc2ccccc2)cc1OCc1ccc(NC(C)=O)cc1	.	0.6%	.	.	7.2%
Cc1ccc2[nH]c(O)c(N=NC(N)=S)c2c1	12.3%	-3.4%	-0.4%	1.4%	-23.7%
